The structures appear in SMILES notation. pIC50: −log10 of the molar value. Bounds are passed on as bounds.

Chains of the proteins cited; added tags and fusions are not shown.
UniProt Q8NEB9, whole entry: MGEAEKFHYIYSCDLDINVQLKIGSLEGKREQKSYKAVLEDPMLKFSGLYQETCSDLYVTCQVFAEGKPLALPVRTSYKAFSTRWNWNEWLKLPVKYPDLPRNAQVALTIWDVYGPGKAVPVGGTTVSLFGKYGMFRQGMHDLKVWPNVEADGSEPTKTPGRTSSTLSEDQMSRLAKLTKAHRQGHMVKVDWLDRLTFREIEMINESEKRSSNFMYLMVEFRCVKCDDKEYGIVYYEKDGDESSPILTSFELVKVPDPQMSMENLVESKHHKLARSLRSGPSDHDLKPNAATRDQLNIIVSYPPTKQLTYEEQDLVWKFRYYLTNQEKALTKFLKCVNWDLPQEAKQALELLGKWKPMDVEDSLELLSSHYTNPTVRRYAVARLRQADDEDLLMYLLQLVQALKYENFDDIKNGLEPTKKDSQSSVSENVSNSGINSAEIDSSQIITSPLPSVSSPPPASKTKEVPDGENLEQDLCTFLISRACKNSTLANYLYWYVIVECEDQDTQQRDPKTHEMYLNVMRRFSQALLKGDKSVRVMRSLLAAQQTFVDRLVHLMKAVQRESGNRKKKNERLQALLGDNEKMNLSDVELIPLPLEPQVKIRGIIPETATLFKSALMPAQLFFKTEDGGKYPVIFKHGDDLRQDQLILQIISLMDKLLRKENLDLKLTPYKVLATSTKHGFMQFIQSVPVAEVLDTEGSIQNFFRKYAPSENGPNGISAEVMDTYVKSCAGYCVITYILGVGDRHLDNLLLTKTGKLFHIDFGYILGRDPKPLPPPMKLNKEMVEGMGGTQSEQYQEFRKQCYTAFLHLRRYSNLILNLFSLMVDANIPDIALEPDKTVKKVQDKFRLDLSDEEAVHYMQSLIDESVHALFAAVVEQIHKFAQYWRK

One compound from patent US9751854B2 (Millennium Pharmaceuticals, Inc., priority 2014, dated 2017) can be followed below.

This assay deals with human VPS34 (Homo sapiens (Human), UniProt Q8NEB9). Kind of assay: Human VPS34 enzyme assay (Adapta TR-FRET ADP detection). The format is biochemical. Background: Time-resolved FRET reads energy transfer from a long-lived donor to a nearby acceptor.

Broadly, the pIC50 is −log10 of the IC50, conventionally taken in molar units. A lower pIC50 goes with a high IC50. As to `Nc1ncc(-c2ccnc(Nc3ccncn3)c2)cc1C(=O)NC12CC(C1)C2` [Compound I-298, 6-amino-N-(bicyclo[1.1.1]pent-1-yl)-2′-(pyrimidin-4-ylamino)-3,4′-bipyridine-5-carboxamide], the pIC50 was more than 8.00.
